The entries are a selection whose mix differs from that of the whole data set. Records with an inconclusive call do not appear. Activity calls are given as the source filed them. Unless noted, the call rests on the fitted dose curve; in most records, active means well fitted curve in the direction sought with a large enough effect; inconclusive means small, poorly fitted or top-dose-only effect, or another doubt; inactive means no such curve, though single readings can be large; an effect the other way counts as inactive or inconclusive.
What was measured:
[1] = Cytometric Cell-Based qHTS for Inhibitors of the mTORC1 Signaling Pathway in MEF (Tsc2-/-, p53-/-) Cells (AID 2660); conditions: mTORC1 pathway cytometry; at 38.3 µM (top of the series);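 further: Tsc2 and p53 null MEFs carrying empty vector with compound for 24 h; percent of cells above a phospho-rpS6 to PI ratio cutoff in each well; plate controls were DMSO for no effect and rapamycin for full effect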
Procedure, shortened: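 Percent of cells positive for normalized phospho-S6 staining is reported, with the cutoff set from rapamycin (7.5 nM) versus DMSO wells. Tsc2-/-, p53-/- MEFs received compound for 24 hrs.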

By UniProt entry, the sequences of proteins in these tests, tags left out. Where a name states a change or a piece, a line headed by the entry shows the natural chain unless it says otherwise.
UniProt O75604: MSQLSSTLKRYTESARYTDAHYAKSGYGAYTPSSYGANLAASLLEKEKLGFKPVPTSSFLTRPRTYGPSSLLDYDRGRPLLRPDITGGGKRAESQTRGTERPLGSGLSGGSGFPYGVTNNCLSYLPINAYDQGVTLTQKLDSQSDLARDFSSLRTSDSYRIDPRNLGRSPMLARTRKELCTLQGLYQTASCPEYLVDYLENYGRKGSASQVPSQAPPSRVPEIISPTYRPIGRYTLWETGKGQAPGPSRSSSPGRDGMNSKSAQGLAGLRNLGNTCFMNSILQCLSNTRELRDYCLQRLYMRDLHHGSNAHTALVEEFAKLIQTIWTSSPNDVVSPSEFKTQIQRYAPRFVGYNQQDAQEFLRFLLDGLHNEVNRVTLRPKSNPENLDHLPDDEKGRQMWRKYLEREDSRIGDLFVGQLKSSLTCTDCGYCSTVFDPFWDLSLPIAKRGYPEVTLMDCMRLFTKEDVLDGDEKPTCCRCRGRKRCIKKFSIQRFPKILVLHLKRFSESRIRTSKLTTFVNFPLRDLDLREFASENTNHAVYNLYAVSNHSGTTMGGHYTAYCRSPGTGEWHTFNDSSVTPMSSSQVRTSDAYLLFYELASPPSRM
UniProt O89049, whole entry, looked up: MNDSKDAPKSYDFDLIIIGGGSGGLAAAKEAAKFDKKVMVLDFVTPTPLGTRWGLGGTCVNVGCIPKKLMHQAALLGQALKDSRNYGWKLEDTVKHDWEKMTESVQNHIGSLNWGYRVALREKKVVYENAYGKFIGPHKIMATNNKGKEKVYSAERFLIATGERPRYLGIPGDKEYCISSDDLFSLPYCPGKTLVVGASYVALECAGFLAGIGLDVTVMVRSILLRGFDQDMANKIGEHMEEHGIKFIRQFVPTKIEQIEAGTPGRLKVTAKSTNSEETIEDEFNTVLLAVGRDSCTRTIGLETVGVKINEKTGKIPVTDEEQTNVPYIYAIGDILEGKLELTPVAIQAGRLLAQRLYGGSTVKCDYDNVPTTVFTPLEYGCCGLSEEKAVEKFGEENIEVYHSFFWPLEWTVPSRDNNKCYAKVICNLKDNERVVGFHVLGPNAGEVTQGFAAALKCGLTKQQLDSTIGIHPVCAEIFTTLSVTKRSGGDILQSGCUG
UniProt P39748, whole entry, looked up: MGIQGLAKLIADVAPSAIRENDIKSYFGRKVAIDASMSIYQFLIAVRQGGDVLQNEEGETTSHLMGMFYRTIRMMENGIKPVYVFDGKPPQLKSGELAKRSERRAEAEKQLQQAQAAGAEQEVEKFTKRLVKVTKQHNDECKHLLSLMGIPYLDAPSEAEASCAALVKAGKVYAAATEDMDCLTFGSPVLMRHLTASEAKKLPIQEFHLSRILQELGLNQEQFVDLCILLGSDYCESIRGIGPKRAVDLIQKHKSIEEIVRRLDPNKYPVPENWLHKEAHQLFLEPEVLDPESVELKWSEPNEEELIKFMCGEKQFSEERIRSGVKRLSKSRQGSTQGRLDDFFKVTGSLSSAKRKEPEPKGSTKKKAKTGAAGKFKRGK
UniProt Q6LX38: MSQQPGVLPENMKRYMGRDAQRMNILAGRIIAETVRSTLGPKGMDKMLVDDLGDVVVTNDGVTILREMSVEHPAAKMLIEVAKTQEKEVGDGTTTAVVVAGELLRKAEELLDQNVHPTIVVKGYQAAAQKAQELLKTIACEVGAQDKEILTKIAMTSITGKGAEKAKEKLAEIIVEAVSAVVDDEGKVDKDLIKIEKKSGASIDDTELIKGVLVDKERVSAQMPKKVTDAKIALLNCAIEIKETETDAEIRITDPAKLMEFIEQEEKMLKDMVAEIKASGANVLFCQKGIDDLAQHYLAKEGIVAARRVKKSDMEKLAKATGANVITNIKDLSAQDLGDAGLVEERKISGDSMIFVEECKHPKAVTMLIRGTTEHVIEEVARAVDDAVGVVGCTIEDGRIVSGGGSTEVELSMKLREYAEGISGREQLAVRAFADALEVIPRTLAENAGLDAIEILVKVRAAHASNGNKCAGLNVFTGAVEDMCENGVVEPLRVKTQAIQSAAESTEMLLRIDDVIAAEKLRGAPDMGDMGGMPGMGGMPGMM
UniProt Q8NER1, whole entry, looked up: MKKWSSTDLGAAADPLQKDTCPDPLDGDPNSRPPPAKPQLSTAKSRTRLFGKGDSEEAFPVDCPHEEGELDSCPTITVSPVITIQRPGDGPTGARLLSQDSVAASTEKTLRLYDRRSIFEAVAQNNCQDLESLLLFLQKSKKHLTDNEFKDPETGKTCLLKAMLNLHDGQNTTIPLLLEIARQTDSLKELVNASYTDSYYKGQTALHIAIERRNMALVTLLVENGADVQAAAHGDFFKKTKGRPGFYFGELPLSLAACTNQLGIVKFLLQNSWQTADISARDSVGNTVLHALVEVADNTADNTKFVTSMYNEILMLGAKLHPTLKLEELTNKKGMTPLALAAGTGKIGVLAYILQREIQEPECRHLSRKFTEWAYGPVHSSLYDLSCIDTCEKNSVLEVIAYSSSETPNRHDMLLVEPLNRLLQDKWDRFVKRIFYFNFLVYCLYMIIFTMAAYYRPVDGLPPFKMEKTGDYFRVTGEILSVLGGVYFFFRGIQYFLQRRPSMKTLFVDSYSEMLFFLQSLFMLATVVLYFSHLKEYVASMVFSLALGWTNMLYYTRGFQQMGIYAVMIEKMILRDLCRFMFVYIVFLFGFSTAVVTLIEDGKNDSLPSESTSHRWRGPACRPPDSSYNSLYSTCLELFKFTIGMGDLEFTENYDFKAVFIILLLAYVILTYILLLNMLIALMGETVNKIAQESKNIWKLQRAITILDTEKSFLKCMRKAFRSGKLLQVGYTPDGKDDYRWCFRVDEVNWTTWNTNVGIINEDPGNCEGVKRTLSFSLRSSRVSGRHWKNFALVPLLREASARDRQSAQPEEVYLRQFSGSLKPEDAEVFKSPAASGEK
UniProt P16473, whole entry, looked up: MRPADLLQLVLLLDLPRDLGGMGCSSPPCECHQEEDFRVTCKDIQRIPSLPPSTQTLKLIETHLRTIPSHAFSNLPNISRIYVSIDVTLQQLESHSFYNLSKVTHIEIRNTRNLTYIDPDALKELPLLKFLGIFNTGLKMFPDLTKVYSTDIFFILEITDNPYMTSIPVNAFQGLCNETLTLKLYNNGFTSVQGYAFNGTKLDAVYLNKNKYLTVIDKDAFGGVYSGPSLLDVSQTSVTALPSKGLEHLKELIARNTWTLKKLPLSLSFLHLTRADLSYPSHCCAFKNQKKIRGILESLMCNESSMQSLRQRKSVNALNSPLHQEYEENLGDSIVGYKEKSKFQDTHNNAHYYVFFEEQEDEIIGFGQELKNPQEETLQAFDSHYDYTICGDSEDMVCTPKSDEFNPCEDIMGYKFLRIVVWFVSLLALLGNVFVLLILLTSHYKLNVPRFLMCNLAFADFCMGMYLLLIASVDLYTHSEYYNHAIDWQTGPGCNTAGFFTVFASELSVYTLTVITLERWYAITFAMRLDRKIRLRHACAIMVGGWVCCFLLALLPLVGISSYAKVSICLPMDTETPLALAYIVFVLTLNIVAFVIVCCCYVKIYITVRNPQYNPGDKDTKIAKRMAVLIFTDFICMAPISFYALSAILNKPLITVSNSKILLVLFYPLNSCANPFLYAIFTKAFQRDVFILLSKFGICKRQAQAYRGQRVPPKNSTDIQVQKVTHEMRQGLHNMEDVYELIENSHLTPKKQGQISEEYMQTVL
UniProt P21728, whole entry, looked up: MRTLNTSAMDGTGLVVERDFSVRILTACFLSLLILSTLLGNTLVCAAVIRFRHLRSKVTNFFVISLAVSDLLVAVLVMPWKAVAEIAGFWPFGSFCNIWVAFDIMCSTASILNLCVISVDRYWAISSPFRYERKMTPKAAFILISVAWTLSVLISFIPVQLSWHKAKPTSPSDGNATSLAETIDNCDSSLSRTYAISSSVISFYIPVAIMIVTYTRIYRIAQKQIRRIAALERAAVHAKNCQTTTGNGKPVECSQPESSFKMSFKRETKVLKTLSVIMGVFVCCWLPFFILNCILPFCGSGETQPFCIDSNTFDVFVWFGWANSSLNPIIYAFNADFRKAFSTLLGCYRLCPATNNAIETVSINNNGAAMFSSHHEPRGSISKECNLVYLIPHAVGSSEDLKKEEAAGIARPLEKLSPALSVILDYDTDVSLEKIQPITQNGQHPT

[2] = High Content Imaging Cell-Based qHTS for Inhibitors of the mTORC1 Signaling Pathway in MEF (Tsc2-/-, p53-/-) Cells (AID 2666); conditions: at 38.3 µM (top of the series);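 further: percent of cells scored positive for phospho-rpS6 Ser235/236 immunostaining by imaging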
Procedure, shortened: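 Tsc2-/-, p53-/- MEFs (empty-vector stable) grown in DMEM + 10% FBS were exposed to compounds for 24 hrs at 37 degree Celsius, fixed, and stained with Alexa-488 anti-phospho-rpS6 Ser235/236 plus Hoechst. Imaging gave the percentage of positive cells per well.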

[3] = High Content Imaging Cell-Based qHTS for Inhibitors of the mTORC1 Signaling Pathway in MEF Cells (AID 2667); conditions: at 38.3 µM (top of the series);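 further: Tsc2-/- p53-/- MEFs stably re-expressing wild-type Tsc2 exposed 24 h; plate controls were DMSO wells for no effect and rapamycin control wells for full effect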
Procedure, shortened: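 Tsc2-/-, p53-/- MEFs stably re-expressing WT Tsc2, grown in DMEM + 10% FBS, were treated with compounds for 24 hrs at 37 degree Celsius, fixed, and stained with Alexa-488 phospho-rpS6 Ser235/236 antibody plus Hoechst; results given as % positive cells.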

[4] = Cytometry Cell-Based qHTS for Inhibitors of the mTORC1 Signaling Pathway in MEF cells (AID 2668); conditions: mTORC1 pathway readout; at 38.3 µM (top of the series);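 further: Tsc2-/- p53-/- mouse embryonic fibroblasts stably re-expressing wild-type Tsc2; percent cells positive for phospho-rpS6 Ser235/236 relative to propidium iodide stain; plate controls were DMSO wells for no effect and 7.5 nM rapamycin control wells for full effect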
Procedure, shortened: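 Phospho-rpS6 (Ser235/236) immunofluorescence over PI signal, scored as % positive cells using thresholds from 7.5 nM rapamycin and DMSO wells, after 24 h compound exposure of WT-Tsc2-rescued Tsc2-/-, p53-/- MEFs. PI cell count recorded for viability.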

[5] = Validation screen for small molecules that induce DNA re-replication in MCF 10A normal breast cells (AID 463097); conditions: MCF 10A cells, DNA re-replication phenotype imaging; at 46.1 µM (top of the series); further: 0% is about no effect; nearly all actives have a fitted effect of over 60% in size
Procedure, shortened: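 Read-out is Hoechst total nuclear intensity by fluorescence scanning imager, flagging increased high-DNA-content nuclei. Compounds were incubated with MCF 10A cells for 48 hr (37 C, 5% CO2) before 40 min staining.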

[6] = biological target: Ubiquitin carboxyl-terminal hydrolase 2 (Homo sapiens) (UniProt O75604); assay: qHTS Validation Assay for Inhibitors of Ubiquitin-specific Protease USP2a Using CHOP2 as the Reporter (AID 463106); conditions: USP2a cleavage of CHOP2 reporter, enzymatic; at 38.3 µM (top of the series);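 further: plate controls were DMSO for no effect and full inhibition by NEM for full effect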
Procedure, shortened: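 Readout was coupled fluorescence (Ex 485/Em 531 nm), read 60 min after adding 25 nM final Ub-CHOP2 and 25 nM reporter substrate. Beforehand, 10 nM final USP2 core had 30 min at RT with compound in pH 8.0 buffer. Curves were fitted after normalization to NEM and flagged for artifacts using time-zero reads.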

[7] = qHTS Validation Assay to Find Inhibitors of Chronic Active B-Cell Receptor Signaling (AID 485345; active means well fitted curve in the direction sought with a large enough effect in the main read-out, with a control signal flat, not every such curve was filed as active;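 further: 0% = untreated basal cells and 100% = 10 µM MG-132 proteasome inhibitor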); conditions: ABC-DLBCL cells, chronic BCR signaling reporter, CBG luciferase; at 46.1 µM (top of the series)
Procedure, shortened: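 Read-out: ratio of filter-corrected green (IkappaBalpha fusion) to red (native) luciferase signal in doxycycline-induced TMD8 cells after 4 h at 37C. Titration spanned 46 uM–3 nM; Data were normalised to basal cells and 10 uM MG-132 wells.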

[8] = biological target: Beta-2 adrenergic receptor (Homo sapiens) (UniProt P07550); assay: qHTS validation assay of beta-arrestin-biased ligands of beta2-adrenergic receptor (AID 485366); conditions: cell-based beta-arrestin recruitment to ADRB2, qHTS; at 46.1 µM (top of the series); further: 0% is about no effect
Procedure, shortened: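 Screening used a titration range of up to 46 microM in a beta-arrestin recruitment Tango luciferase assay. Cells in 1% FBS medium were treated 18 hr at 37 degrees C, and luminescence was normalized to %Activity.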

[9] = biological target: Thioredoxin reductase 1, cytoplasmic (Rattus norvegicus) (UniProt O89049); assay: qHTS Assay for Substrates of Mammalian Selenoprotein Thioredoxin Reductase 1 (TrxR1) (AID 488772); conditions: purified TrxR1, NADPH consumption substrate assay; at 57.1 µM (top of the series);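 further: 0% is about no effect; a drop in NADPH fluorescence below the no-compound background marks a TrxR1 substrate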
Procedure, shortened: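 In this dual-purpose format, potential substrates are identified from the first fluorescence read after selenite addition, not from the 8-minute delta. Rat enzyme is preincubated with NADPH and then with compound at ~22 deg C.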

[10] = biological target: Flap endonuclease 1 (Homo sapiens) (UniProt P39748); assay: qHTS Validation Assay for the Inhibitors of Human Flap endonuclease 1 (FEN1) (AID 488816); conditions: FEN1 nuclease activity, fluorogenic DNA substrate; at 57.1 µM (top of the series); further: on the % scale 0 is the no-effect control and ±100 the full control effect
Procedure, shortened: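 qHTS format: compounds and 10 nM FEN1 incubated 15 min at room temperature before adding 50 nM substrate. Cleavage followed by reads at 0 and 15 min; normalized data fitted to a four-parameter Hill curve.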

[11] = biological target: Methanococcus maripaludis chaperonin (MmCpn) (UniProt Q6LX38); assay: High-Throughput Screening for Modulators of Cytosolic Chaperonin Activity: MmCpn Primary Screen (AID 488978); conditions: MmCpn chaperonin refolding activity, biochemical qHTS; at 76.9 µM (top of the series);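 further: 50 nM MmCpn enzyme hydrolysing 30 µM ATP at 37 °C; 0% is about no effect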
Procedure, shortened: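 ATPase activity of 50 nM MmCpn was assayed with 30 uM ATP, 10 minutes at 37C, after a 5 min compound preincubation at room temperature. ADP production was read as HTRF emission at 590 and 665 nm.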

[12] = biological target: Transient receptor potential cation channel subfamily V member 1 (Homo sapiens) (UniProt Q8NER1); assay: HTS Assay for Compounds that Act as Enhancers of the Vanilloid Receptor 1 (AID 488979); conditions: TRPV1-expressing cells, enhancer of channel activity, stimulated with capsaicin at EC20; at 41.7 µM (top of the series); further: 0% is about no effect
Procedure, shortened: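 Calcium influx kinetics via Fluo-8 (480/520 nm) in TRPV1-expressing cells, 2000/well cultured overnight at 35.5C. Compound-alone read 3 min (agonist phase), followed by EC20 capsaicin challenge for 2 min (enhancer phase).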

[13] = biological target: Thyrotropin receptor (Homo sapiens) (UniProt P16473); assay: qHTS Assay for Antagonists of the Thyroid Stimulating Hormone Receptor (AID 488980); conditions: TSHR-expressing cells, cAMP antagonist read-out; at 57.5 µM (top of the series); further: 0% is about no effect
Procedure, shortened: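 Inhibition of cAMP raised by EC80 TSH (4 nM final) was read by HTRF, with lysate cAMP competing against cAMP-d2 for cryptate antibody after 30 min at room temperature. The cells were transfected HEK293 held in phosphodiesterase inhibitor RO 20-1724 at 70 uM.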

[14] = biological target: D(1A) dopamine receptor (Homo sapiens) (UniProt P21728); assay: HTS Assay for Allosteric Agonists of the Human D1 Dopamine Receptor: Primary Screen for Agonists (AID 488981); conditions: D1 receptor-expressing cells, agonist cAMP readout; at 41.8 µM (top of the series); further: 0% is about no effect
Procedure, shortened: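 Calcium flux in an inducible, force-coupled HEK293 Trex D1 line (overnight at 30 C): agonist mode is the 180 s kinetic read after compound; potentiator mode is the following 180 s read after dopamine at EC20.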

[15] = biological target: D(1A) dopamine receptor (Homo sapiens) (UniProt P21728); assay: HTS Assay for Allosteric Agonists of the Human D1 Dopamine Receptor: Primary Screen for Potentiators (AID 488982); conditions: D1 receptor cells, potentiator mode, cAMP signal; at 8.37 µM (top of the series); further: 0% is about no effect
[16] = biological target: D(1A) dopamine receptor (Homo sapiens) (UniProt P21728); assay: HTS Assay for Allosteric Agonists of the Human D1 Dopamine Receptor: Primary Screen for Antagonists (AID 488983); conditions: D1 receptor cell assay, antagonist mode, qHTS titration; at 41.8 µM (top of the series);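 further: calcium flux response to an EC80 dopamine challenge measured with no-wash dye; on the % scale 0 is the no-effect control and ±100 the full control effect; nearly all actives have a fitted effect of over 65% in size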

CN(CCCl)Cc1cc(Cl)c(NC2=NCCN2)c(Cl)c1
inactive: activity change, negative = inhibition [1] -17.1% | outcome [2] | activity change, negative = inhibition [3] -100% | activity change, negative = inhibition [4] 1.57% | re-replication induction [5] 15.7% | activity, negative = inhibition [6] 0.549% | activity change [7] -17.9% | activation [8] 0.967% | activity change, negative = NADPH consumption [9] -11% | activity, negative = inhibition [10] -1.88% | activity change, negative = inhibition [11] 0.124% | activity change, positive = enhancement [12] -1.68% | activity, negative = inhibition [13] -0.0078% | activation [14] 0.952% | activity, positive = potentiation [15] 12% | activity change, negative = inhibition [16] 7.24%
